Results taken from patent US7601357B2 (priority 2005, dated 2009).

Target: T1, LIPY (Mycobacterium tuberculosis, UniProt I6Y2J4)
T1 construct: The 24 open-reading frames (ORFs) were amplified from the genomic DNA of M. tuberculosis H37Rv; 6xHis (pET200 D-TOPO N-terminal fusion) (N); made in house; host or cells: E. coli BL21 Star (DE3)
T1 sequence (I6Y2J4 1-437): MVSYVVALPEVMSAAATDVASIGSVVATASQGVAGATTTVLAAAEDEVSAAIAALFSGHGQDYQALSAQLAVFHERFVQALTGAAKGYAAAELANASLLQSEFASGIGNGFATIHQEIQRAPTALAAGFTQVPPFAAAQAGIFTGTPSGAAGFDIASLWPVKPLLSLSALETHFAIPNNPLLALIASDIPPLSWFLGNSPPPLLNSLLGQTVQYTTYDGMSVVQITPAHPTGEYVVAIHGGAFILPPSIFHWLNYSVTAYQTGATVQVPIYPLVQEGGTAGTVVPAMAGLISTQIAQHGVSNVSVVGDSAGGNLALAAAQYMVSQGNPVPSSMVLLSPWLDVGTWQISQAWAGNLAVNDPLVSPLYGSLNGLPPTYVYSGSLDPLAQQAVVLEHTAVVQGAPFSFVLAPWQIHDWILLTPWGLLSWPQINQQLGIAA
Format: biochemical

O=S(=O)(F)Cc1ccccc1 [PMSF, phenylmethanesulfonyl fluoride, reference compound]
Inhibition of LIPY activity: 75%
